Test results published in US9469615B2, “Quinoxalines and AZA-quinoxalines as CRTH2 receptor modulators” (Merck Sharp & Dohme Corp., priority 2010, dated 2016).

Protein sequences, listed by entry. Tags and fused reporters are not part of them.
UniProt Q9Y5Y4, whole entry: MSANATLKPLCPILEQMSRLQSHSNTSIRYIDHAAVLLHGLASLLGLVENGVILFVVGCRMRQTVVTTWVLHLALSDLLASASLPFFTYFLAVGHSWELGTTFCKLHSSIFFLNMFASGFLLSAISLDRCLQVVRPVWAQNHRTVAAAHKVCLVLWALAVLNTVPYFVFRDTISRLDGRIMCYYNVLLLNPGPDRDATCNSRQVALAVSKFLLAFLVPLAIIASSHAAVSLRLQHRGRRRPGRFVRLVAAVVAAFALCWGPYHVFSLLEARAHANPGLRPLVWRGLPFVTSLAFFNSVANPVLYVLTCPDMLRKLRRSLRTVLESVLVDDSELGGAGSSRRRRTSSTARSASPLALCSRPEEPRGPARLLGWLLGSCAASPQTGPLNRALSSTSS

Target: hCRTH2 (Homo sapiens, UniProt Q9Y5Y4)
Assay: Radioligand binding assay ([3H]PGD2 competition, HEK-hCRTH2 membranes)

| Ki ([3H]PGD2 binding, rated A-E (Table A)) [nM] | SMILES | Ki ([3H]PGD2 competition, Table B) [nM] |
| --- | --- | --- |
| 2.1 to 20 | O=C(O)CCCCc1nc2cc(C(=O)N[C@H](c3ccc(F)cc3)C(F)(F)F)ccc2nc1-c1ccc(Cl)cc1 | – |
| – | CC(CCc1nc2cc(C(=O)N3CCN(c4ccccc4)CC3)ccc2nc1-c1ccc(C(F)(F)F)cc1)CC(=O)O (stereo not shown) | 2.1 to 20 |
| – | O=C(O)CCCc1nc2cc(C(=O)N3CCN(c4ccc(F)cc4)CC3)ccc2nc1-c1ccccc1 | 201 to 700 |
| – | O=C(O)CCCCc1nc2cc(C(=O)N[C@@H]3CCS(=O)(=O)c4ccccc43)ccc2nc1-c1ccc(F)cc1 | 201 to 700 |
